{
  "source": "patent US20200002670A1",
  "about": "“Generation of Endocrine Progenitor Cells from Human Pluripotent Stem Cells Using Small Molecules” (Novo Nordisk A/S, priority 2013, published 2020)",
  "system": "pancreatic endoderm cells",
  "test": "NGN3/NKX2.2 double positive cells by immunostaining and InCell imaging after PE to EP differentiation",
  "assay_type": "cell-based, human",
  "conditions": "0.5 μM added to method of example 2 for three days",
  "method": "After three days of EP differentiation, at EP day 4, media were aspirated followed by fixation of the cells at room temperature for 30 min with 4% paraformaldehyde (VWR, 97.131.000). Cells were washed with PBS and permeabilized with 0.5% Triton X-100 (Sigma, 9002-93-1) for 10 min, washed and blocked in 0.5% TNB-buffer (Perkin Elmer) for 30 min at room temperature. Primary antibodies, sheep anti-NGN3 (R&D systems #AF3444) and rabbit anti-NKX2.2 (Sigma #HPA003468) were diluted 1:1000 and 1:500, respectively, in 0.1% Triton X-100 in PBS and added to each well for overnight incubation at 4° C. Cells were washed three times with PBS. […] The total cell number based in the DAPI counterstaining and the number of NGN3/NKX2.2 double positive cells was determined using InCell Developer Toolbox 1.8 (GE Healthcare). The fraction of NGN3/NKX2.2 double positive cells were quantified using the InCell developer toolbox software (GE Healthcare) and normalized to the combined protocol K&N (example 2) on each plate and the % effect was calculated (% effect NGN3/NKX2.2 double positive=((S−Sneg)/(|Spos−Sneg|))*100). […]\nImaging was performed using the InCell Analyzer 2000 (GE Healthcare). […] The total cell number based in the DAPI counterstaining and the number of NGN3/NKX2,2 double positive cells was determined using InCell Developer Toolbox 1.8 (GE Healthcare). […]",
  "data": [
    {"compound": "COc1cc2ncnc(Nc3ccc(F)c(Cl)c3)c2cc1OCCCN1CCOCC1", "note": "[Gefitinib]", "values": [
      {"measurement": "% effect NGN3/NKX2.2 double positive cells", "result": 242, "unit": "%"}
    ]}
  ]
}
